Test: surface tension by Du Noüy ring method, Krüss K20 EasyDyne tensiometer
Format: physicochemical
Settings: 2.5 % w/w solvent in water, room temperature
Experimental: As used herein, the term “surface tension” refers to the force required to increase the unit area of a surface of a liquid or of an interface between two liquids or between a liquid and a gas, generally stated in units of dynes/cm. Surface tensions described herein are measured by the Du Noüy ring method utilizing an EasyDyne tensiometer model K20 marketed by Krüss USA, Matthews, N.C.
Surface tension of a fluid containing water was determined prior to and after mixing with various concentrations of various water soluble organic solvents in water. The water soluble organic solvents tested were: propylene glycol (Spectrum Chemicals, Gardena, Calif.), ethanol (Alfa Aesar, Ward Hill, Mass.), hexylene glycol (Ruger Chemicals, Linden, N.J.), ethoxydiglycol (Gattefossé USA, Paramus, N.J.), polyethylene glycol 400 (PEG 400) (Croda USA, Edison, N.J.), dimethyl isosorbide (DMI) (Croda, USA, Edison, N.J.) and glycerin (Spectrum Chemicals, Gardena, Calif.) as well as polyethylene glycol 200 NF (PEG 200) (Alfa Aesar, Ward Hill, Mass.), propylene carbonate (Spectrum Chemicals, Gardena Calif.), isopropyl alcohol (Spectrum Chemicals, Gardena Calif.), 1,3-propanediol (Spectrum Chemicals, Gardena Calif.) and polypropylene glycol (PPG-9) (Spectrum Chemicals, Gardena Calif.). […]

Compound: CC(C)O [Isopropyl Alcohol, isopropyl alcohol]
- Surface tension: 54.2 dynes/cm
